# Results taken from US11185100B2 (priority 2014, dated 2021).
# Amino acid sequences for entries named in this document (tags omitted). A change or cut given only in a name is not applied to a line headed by its entry.
# UniProt E3UMS2: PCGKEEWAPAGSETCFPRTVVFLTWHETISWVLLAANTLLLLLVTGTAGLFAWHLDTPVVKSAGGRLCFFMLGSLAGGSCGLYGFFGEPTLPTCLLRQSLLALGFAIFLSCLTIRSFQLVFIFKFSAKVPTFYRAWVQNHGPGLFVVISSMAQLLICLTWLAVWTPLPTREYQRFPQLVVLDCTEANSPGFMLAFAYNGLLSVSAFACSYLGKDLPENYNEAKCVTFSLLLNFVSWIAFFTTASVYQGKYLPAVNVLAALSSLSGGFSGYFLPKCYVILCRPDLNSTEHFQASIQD
# Molecular target: cat T1R1/T1R3 receptor (Felis catus, UniProt E3UMS2)
# Settings: +Alanine (20 mM)
compound,measurement,value
"Nc1ncnc2c1ncn2C1OC(COP(=O)(O)OS(=O)(=O)O)C(O)C1O (stereo not shown) [Adenosine 5′-phosphosulfate sodium salt, Adenosine 5′-phosphosulfate]",Activity,active

# Structures can show the parent of a compound that is named as a salt.
